Experiment [1] deals with intracellular GCN2 (phosphorylation of the GCN2 substrate eIF2α) (Homo sapiens, UniProt Q9P2K8). Description: GCN2 cellular inhibition assay (AlphaScreen SureFire P-eIF2α Ser51, borrelidin-treated U2OS cells). Particulars: read-out: GCN2 Biomarker (IC50), compounds of Formula II, phosphorylated eIF2α Ser51 in borrelidin-treated U2OS cells. The procedure:
Compounds can be screened for their ability to inhibit intracellular GCN2 using an AlphaScreen assay (Perkin Elmer) to detect phosphorylation of the GCN2 substrate eIF2α in borrelidin-treated cells. U2OS cells are plated at 5,000 cells per well in 384-well white polystyrene plates (Corning 3570) in McCoy's 5 A media (GIBCO 26600-023) supplemented with 10% foetal bovine serum (SAFC 12103C), Penicillin/Streptomycin solution diluted 1:100 (Sigma P0781), and 2 mM L-glutamine (Sigma G7513), and allowed to adhere overnight at 37° C. in 5% CO2. Compounds are then added to the cell media from a final concentration of 40 μM in 4-fold serial dilutions. Borrelidin (FluoroChem M01440) is immediately added to the wells to a final concentration of 10 μM and the cells are incubated for 1 h at 37° C. in 5% CO2. After 1 h of treatment with borrelidin, the media is removed, and the cells are lysed with lysis buffer (TGR BioSciences TGRLB) at ambient temperature.
An AlphaScreen SureFire P-eIF2α (Ser51) assay kit (Perkin Elmer TGREIF2S) was used to measure levels of eIF2α phosphorylated on Serine 51. […]
Plates are analyzed on an Alpha Technology-compatible PHERAstar FS plate reader (BMG Labtech Version 1.14) to quantify phosphorylated eIF2α Ser51 levels. The percentage inhibition of phosphorylated eIF2α is calculated by comparison to control wells stimulated with borrelidin alone.
In general terms: Bead proximity is the source of the signal in Alpha formats.

Amino acid sequences for entries named in this document (tags omitted).
UniProt Q9P2K8, whole entry: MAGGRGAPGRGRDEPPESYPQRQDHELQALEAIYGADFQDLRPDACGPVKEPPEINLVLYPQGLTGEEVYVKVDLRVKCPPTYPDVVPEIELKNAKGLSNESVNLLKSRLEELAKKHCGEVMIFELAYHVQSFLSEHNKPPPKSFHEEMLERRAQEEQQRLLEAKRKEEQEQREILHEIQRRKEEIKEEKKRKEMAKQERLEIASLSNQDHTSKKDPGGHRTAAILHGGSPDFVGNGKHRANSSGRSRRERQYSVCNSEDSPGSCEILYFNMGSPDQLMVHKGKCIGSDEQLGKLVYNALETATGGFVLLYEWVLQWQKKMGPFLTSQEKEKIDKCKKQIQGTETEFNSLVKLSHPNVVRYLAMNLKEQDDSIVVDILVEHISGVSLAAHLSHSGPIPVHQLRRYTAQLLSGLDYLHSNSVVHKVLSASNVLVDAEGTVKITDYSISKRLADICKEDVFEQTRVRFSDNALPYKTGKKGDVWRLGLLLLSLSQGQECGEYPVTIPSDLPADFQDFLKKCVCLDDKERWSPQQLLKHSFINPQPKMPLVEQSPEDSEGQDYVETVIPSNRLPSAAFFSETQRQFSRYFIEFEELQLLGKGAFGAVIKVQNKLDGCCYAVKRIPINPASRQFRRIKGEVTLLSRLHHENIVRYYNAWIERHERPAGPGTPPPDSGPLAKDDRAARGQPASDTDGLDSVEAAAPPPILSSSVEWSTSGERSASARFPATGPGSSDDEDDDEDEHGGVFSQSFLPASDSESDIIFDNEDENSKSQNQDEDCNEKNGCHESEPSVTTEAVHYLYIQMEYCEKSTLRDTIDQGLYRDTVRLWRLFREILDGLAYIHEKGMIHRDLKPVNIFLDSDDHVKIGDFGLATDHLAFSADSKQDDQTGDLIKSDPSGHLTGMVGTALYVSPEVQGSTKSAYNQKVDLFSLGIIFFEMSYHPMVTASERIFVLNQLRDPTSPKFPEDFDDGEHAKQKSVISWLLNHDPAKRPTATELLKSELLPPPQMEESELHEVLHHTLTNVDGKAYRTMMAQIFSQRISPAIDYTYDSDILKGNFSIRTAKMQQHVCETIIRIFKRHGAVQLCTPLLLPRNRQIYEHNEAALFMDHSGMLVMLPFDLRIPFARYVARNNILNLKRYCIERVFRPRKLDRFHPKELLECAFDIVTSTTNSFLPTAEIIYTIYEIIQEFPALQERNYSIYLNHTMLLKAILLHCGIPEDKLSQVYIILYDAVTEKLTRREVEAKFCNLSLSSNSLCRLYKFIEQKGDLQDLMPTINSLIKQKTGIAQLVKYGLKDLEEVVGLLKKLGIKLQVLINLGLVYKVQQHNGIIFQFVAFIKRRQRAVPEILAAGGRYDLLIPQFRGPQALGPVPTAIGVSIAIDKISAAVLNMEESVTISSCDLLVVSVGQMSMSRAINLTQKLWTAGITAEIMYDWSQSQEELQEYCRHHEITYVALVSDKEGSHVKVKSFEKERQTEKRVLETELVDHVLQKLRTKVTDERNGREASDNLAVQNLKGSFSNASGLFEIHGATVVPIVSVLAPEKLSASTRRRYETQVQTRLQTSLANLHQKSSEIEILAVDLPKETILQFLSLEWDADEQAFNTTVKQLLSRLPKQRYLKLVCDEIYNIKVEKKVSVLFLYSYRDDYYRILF

For the next experiment, the target named is GCN2 kinase (Homo sapiens, UniProt Q9P2K8). Description: GCN2 enzyme inhibition assay (Transcreener ADP2 fluorescence polarization). Conditions: read-out: GCN2 (Ki); compounds of Formula II; 280 μM ATP, 4 nM GCN2 kinase. Here is the method: Compounds were screened for their ability to inhibit GCN2 kinase activity using a Transcreener® ADP^2 fluorescence polarization assay that detects ADP levels (BellBrook Labs, WI). Assays were carried out in a buffer consisting of 25 mM Tris-HCl (pH 7.5), 50 mM NaCl, 10 mM MgCl2 and 1 mM DTT. Final substrate concentrations were 280 μM ATP and 200 μM peptidic substrate (H-[…]OH [(RS)7], Bachem, Switzerland). Assays were carried out at 25° C. in the presence of a (typical) final concentration of 4 nM GCN2 kinase.
An assay buffer containing GCN2 kinase and (RS)7 was prepared. 4.7 μL of this stock solution was placed per well of a black, low volume, 384-well microtitre plate (e.g. catalogue number 3676, Corning Inc., NY). […] The reaction was left to incubate for 1 hour at 25° C., prior to measuring the fluorescence polarisation signal (mP) in each well using a PHERAstar FS reader (BMG Labtech, Germany).
Fluorescence polarization values were normalized to an in plate standard curve consisting of various ratios of ATP to ADP in assay buffer to a final total concentration of 280 μM. […] Percentage inhibition of enzyme activity was then calculated at each compound dose. IC50 and Ki(app) (using known assay and kinetic parameters) values were calculated from percentage inhibition data using a non-linear, tight-binding algorithm. […]
(In general: Polarisation of emitted light reports the rotation of a fluorescent probe.)

Among the data in patent US10988477B2 (Merck Patent GmbH, priority 2018, dated 2021) are IC50 and Ki values, retold here.

Regarding `CS(=O)(=O)NCC1CN(c2cc(-c3cnc4ccc(C(F)F)nn34)cc[n+]2[O-])CCC1(F)F` (centres unmarked), in experiment [1], the IC50 fell in the range of 500 to 5000 nM. Moreover, the inhibition constant (Ki) at GCN2 kinase is less than 10 nM.

As usually defined, the IC50 is the concentration needed to halve the response being measured. By Ki is commonly meant the dissociation constant of the complex between target and ligand, obtained from inhibition or displacement.
